Laboratory results reported in PubChem BioAssay AID1009 (NMMLSC, 2008).
This is a selection; strong and weak results do not stand in their true shares. Activity calls are given as the source filed them. Cut-off read from the data, not from the text of the source: active = inhibition above about 40%.

Sequences of proteins named here, by UniProt entry; tags and fusion partners are left off.
UniProt Q07820, whole entry: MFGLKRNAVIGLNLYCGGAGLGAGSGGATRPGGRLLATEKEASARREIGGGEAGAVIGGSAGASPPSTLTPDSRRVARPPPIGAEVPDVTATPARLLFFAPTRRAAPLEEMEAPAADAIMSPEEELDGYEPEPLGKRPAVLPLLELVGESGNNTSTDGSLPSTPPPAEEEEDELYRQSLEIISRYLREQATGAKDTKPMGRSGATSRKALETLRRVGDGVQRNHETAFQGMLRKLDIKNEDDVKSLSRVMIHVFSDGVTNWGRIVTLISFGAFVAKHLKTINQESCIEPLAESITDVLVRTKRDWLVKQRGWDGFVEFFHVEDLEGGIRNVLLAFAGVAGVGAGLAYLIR

What follows are molecules tested against Induced myeloid leukemia cell differentiation protein Mcl-1 (Homo sapiens) (UniProt Q07820) (assay: inhibitors of Bim peptide binding to Mcl-1, primary screen, biochemical, bead-based flow cytometry, multiplex (AID 1009;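 note: 0% = no compound tracer wells and 100% = peptide blocker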)). Conditions: Bim peptide-Mcl-1 binding, at 10 µM, hits give high values.

Structure (SMILES)	inhibition
COc1ccc(OP(C)(=O)Nc2ccc(Br)cc2)cc1 (centres undefined)	inactive: -3%
CCN(CC)CC(O)COC(=O)C(O)(c1ccccc1)C1CCCCC1 (centres undefined)	inactive: 6%
CCc1ccc(OP(C)(=O)Nc2cccnc2)cc1 (centres undefined)	inactive: 1%
CP(=O)(Oc1ccccc1)N1CCOC1=O (centres undefined)	inactive: -1%
COc1ccccc1OP(C)(=O)Nc1ccccc1Br (centres undefined)	inactive: 0%
CC(C)(C)c1ccc(OP(C)(=O)O)cc1	inactive: 1%
CP(=O)(Nc1ccc(Cl)cc1)Oc1ccc(F)cc1 (centres undefined)	inactive: -2%
CN(C)C(=O)c1c([N+](=O)[O-])cc([N+](=O)[O-])cc1[N+](=O)[O-]	inactive: 2%
CCOC(=O)c1ccc(NP(C)(=O)Oc2ccc(Cl)cc2)cc1 (centres undefined)	inactive: -2%
CP(=O)(OC12CC3CC(CC(C3)C1)C2)OC12CC3CC(CC(C3)C1)C2	inactive: -4%
Cc1cc(C)cc(OP(C)(=O)Nc2cccc(C(F)(F)F)c2)c1 (centres undefined)	inactive: -1%
COc1ccccc1OP(C)(=O)Nc1ccc(C)c(C)c1 (centres undefined)	inactive: 2%
COc1ccc(OP(C)(=O)Nc2ccccc2Br)cc1 (centres undefined)	inactive: -6%
Cc1nc2ccc3ccccc3c2o1.O=[N+]([O-])c1cc([N+](=O)[O-])c(O)c([N+](=O)[O-])c1	inactive: 0%
CP(=O)(Nc1ccc(Cl)cc1Cl)Oc1ccccc1 (centres undefined)	inactive: 0%
CP(=O)(OCCOc1ccccc1)OCCOc1ccccc1	inactive: -1%
COc1ccc(OP(C)(=O)Nc2ccccn2)cc1 (centres undefined)	inactive: -4%
CN(C)CCOC(=O)C(O)(c1ccccc1)C1CCCC1 (centres undefined)	inactive: 2%
Cc1c(NP(C)(=O)Oc2ccc(C(C)C)cc2)c(=O)n(-c2ccccc2)n1C (centres undefined)	inactive: 0%
O=[N+]([O-])c1cc([N+](=O)[O-])c(Nc2ccccn2)c([N+](=O)[O-])c1	inactive: 0%
COc1ccccc1OP(C)(=O)Nc1ccc(C)cc1C (centres undefined)	inactive: 1%
CP(=O)(Nc1ccccn1)Oc1ccccc1 (centres undefined)	inactive: 0%
CCc1ccc(OP(C)(=O)O)cc1	inactive: 0%
CP(=O)(Nc1ccccc1F)Oc1ccccc1 (centres undefined)	inactive: 0%
CC(C)c1ccc(OP(C)(=O)Nc2ccc(SC(F)(F)F)cc2)cc1 (centres undefined)	inactive: -24%
O=C(OCCN1CCN(CCOCc2ccccc2)CC1)C(O)(c1ccccc1)c1ccccc1	inactive: -7%
CCOC(=O)c1ccc(NP(C)(=O)Oc2ccc(F)cc2)cc1 (centres undefined)	inactive: -3%
COc1ccc(OP(C)(=O)Nc2ccc(SC(F)(F)F)cc2)cc1 (centres undefined)	inactive: 0%
CCN(CC)CCCOC(=O)C(O)(c1ccccc1)C1CCCCC1 (centres undefined)	inactive: -2%
